Yeast UUG start: yeast start codon fidelity modulation | S. cerevisiae UUG-firefly luciferase reporter, luminescence/redox ratio | activity score, % at 18.7 µM | 0.13% of 350,000 active | AID 602363;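 active means replicate mean at a twofold rise or more, about +100% in these data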;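 further: firefly luciferase made from a UUG start codon reports start codon fidelity; reporter light over untreated wells divided by growth signal over untreated wells; some hits fall short of that in this replicate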
Cneo AK release: causes C. neoformans cell lysis. adenylate kinase release luminescence, 4 h; normalised: neutral wells 0, clomiphene wells 100. lysis activity, % at 15 µM. 360,000 compounds, 0.2% hits;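 active means mean lysis activity across replicates of at least 80%, whatever share of replicates individually reach that level; inactive means mean lysis activity below 80%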
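Material – Cryptococcus neoformans yeast cells · Quantity – 5 × 10^6 yeast cells/mL · Buffer or medium – YPD medium · Compound – single dose · Timing – 4 h static compound exposure, 37 °C, read 1 h post-reagent · Signal – adenylate kinase release luminescence · Read-out basis – lysis from increased AK signal · Benchmarks – Clomiphene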
E-sel inducer: induces E-selectin expression in human endothelial cells; P16581; HUVEC E-selectin immunofluorescence imaging; normalized: neutral wells 0, TNF-alpha wells 100; activation, % at 7.58 µM; 260,000 compounds, 0.37% hits; AID 686992;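 active means mean E-selectin-positive cell signal at least 10% of the positive control, reached in at least 60% of replicates, without over 20% cell loss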
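System: HUVEC / Compound: single concentration / Signal: immunofluorescence imaging / Read-out: percent E-selectin-positive cells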
DENV2 CPE rescue: DENV2-induced cell death inhibition. DENV2-infected cells, cytopathic effect rescue, plate reader. CPE inhibition, % at 9.99 µM. 350,000 compounds, 1.7% hits; in the data active means CPE inhibition above about 20%, passing the limit was not always enough; tested in BHK-21 cells
Hits are given with their value; . = inactive; / = no result; ! = a repeat was not active. A selection: hits, their analogues and other compounds. The true share with any hit is near 1.8%.

SMILES	Yeast UUG start	Cneo AK release	E-sel inducer	DENV2 CPE rescue
COc1ccc(CN(C)C[C@@H]2OCCCC[C@@H](C)Oc3ccc(NC(=O)CCC(F)(F)F)cc3C(=O)N([C@H](C)CO)C[C@H]2C)cc1	.	.	.	30
COc1ccc(NC(=O)Nc2ccc3c(c2)C(=O)N([C@H](C)CO)C[C@@H](C)[C@@H](CN(C)C(=O)CCC(F)(F)F)OCCCC[C@H](C)O3)cc1	.	95	.	/
C[C@@H]1CN([C@H](C)CO)C(=O)c2cc(NC(=O)CCC(F)(F)F)ccc2O[C@@H](C)CCCCO[C@H]1CN(C)Cc1ccc(Cl)c(Cl)c1	.	.	.	71
C[C@H](CO)N1C[C@H](C)[C@@H](CN(C)Cc2ccc(Cl)c(Cl)c2)OCCCC[C@H](C)Oc2ccc(NC(=O)CCC(F)(F)F)cc2C1=O	.	.	.	.
Cc1ccc(S(=O)(=O)Nc2ccc3c(c2)CC(=O)N([C@H](C)CO)C[C@H](C)[C@@H](CN(C)CC2CCCCC2)O3)cc1	.	.	.	.
C[C@@H]1CCCCO[C@@H](CN(C)CC2CCCCC2)[C@@H](C)CN([C@H](C)CO)C(=O)c2cc(NC(=O)CCC(F)(F)F)ccc2O1	.	.	.	63
O=C(c1cc(Br)ccc1Cl)N1CCN(c2ccccn2)CC1	.	135	/	.
O=C(c1cc(Cl)ccc1Cl)N1CCN(c2ccccn2)CC1	.	.	/	.
O=C(O)C[C@H]1C=C[C@H](NC(=O)CCN2CCCCC2)[C@@H](CO)O1	/	/	.	.
Cc1noc(C)c1NC(=O)Nc1ccc2c(c1)C(=O)N([C@H](C)CO)C[C@@H](C)[C@H](CN(C)S(=O)(=O)c1ccccc1)OCCCC[C@@H](C)O2	.	.	.	.
F[B-](F)(F)c1cnc2ccccc2c1	.	.	/	26
C[C@H](CO)N1C[C@H](C)[C@H](CN(C)Cc2ccc(C(=O)Nc3ccccc3N)cc2)Oc2ccc(NS(=O)(=O)c3ccc(Cl)cc3)cc2C1=O	.	.	.	.
CO[C@@H]1CN(C)C(=O)c2cc(NC(=O)C3CCC3)ccc2OC[C@@H](C)N(Cc2ccncc2)C[C@@H]1C	.	.	.	41
CCCC(=O)Nc1ccc2c(c1)C(=O)N(C)C[C@@H](OC)[C@H](C)CN(C(=O)c1ccccn1)[C@H](C)CO2	/	.	.	.
CO[C@@H]1CN(C)C(=O)c2cc(NC(=O)C3CC3)ccc2OC[C@H](C)N(C(=O)c2ccncc2)C[C@H]1C	.	102	.	.
CO[C@@H]1CN(C)C(=O)c2ccc(NC(C)=O)cc2OC[C@@H](C)N(C(=O)c2ccccn2)C[C@H]1C	.	95	.	.
CO[C@H]1CN(C)C(=O)c2cc(NC(=O)C3CCC3)ccc2OC[C@H](C)N(Cc2ccncc2)C[C@H]1C	.	.	.	.
CO[C@H]1CN(C)C(=O)c2ccc(NC(C)=O)cc2OC[C@H](C)N(C(=O)c2ccccn2)C[C@@H]1C	/	/	.	.
CCC(=O)Nc1ccc2c(c1)C(=O)N(C)C[C@@H](OC)[C@H](C)CN(C(=O)c1ccccn1)[C@@H](C)CO2	.	.	.	27
O=C(N[C@H]1CC[C@@H](CCNS(=O)(=O)c2ccccc2)O[C@@H]1CO)c1cccnc1	.	.	.	.
CCC(=O)Nc1ccc2c(c1)OC[C@H](C)N(C(=O)c1ccccn1)C[C@H](C)[C@H](OC)CN(C)C2=O	/	/	.	34
CO[C@H]1CN(C)C(=O)c2ccc(NC(C)=O)cc2OC[C@H](C)N(C(=O)c2ccncc2)C[C@@H]1C	.	82	.	.
C[C@H]1CN([C@@H](C)CO)C(=O)c2cccc(NS(C)(=O)=O)c2O[C@H]1CN(C)Cc1ccc(Cl)c(Cl)c1	/	.	.	.
Cn1nc(C(F)(F)F)c(-c2ccc(Br)cc2)c1NC(=O)CSCC(=O)O	/	/	.	58
CCCC(=O)Nc1ccc2c(c1)C(=O)N(C)C[C@H](OC)[C@@H](C)CN(Cc1ccc(-c3ccccn3)cc1)[C@H](C)CO2	.	.	.	36
SMILES	Yeast UUG start	Cneo AK release	E-sel inducer	DENV2 CPE rescue
CCCC(=O)Nc1ccc2c(c1)C(=O)N(C)C[C@H](OC)[C@@H](C)CN(Cc1ccc(-c3ccccn3)cc1)[C@@H](C)CO2	.	.	.	.
CCCNC(=O)Nc1ccc2c(c1)OC[C@H](C)N(Cc1ccc(-c3ccccn3)cc1)C[C@@H](C)[C@H](OC)CN(C)C2=O	.	.	.	25
CCN(CC)CCCn1c2c(c(SCC(=O)Nc3cc(C)cc(C)c3)nc1=O)CCC2	.	.	/	22
CC(=O)c1ccc(N2CCN(c3ccnc4cc(Cl)ccc34)CC2)cc1	.	.	40	.
CC(C)(C)C(=O)N1CCN(c2ccnc3cc(Cl)ccc23)CC1	.	.	/	.
C[C@@H]1CN([C@H](C)CO)C(=O)c2ccccc2-c2ccccc2CO[C@H]1CN(C)C(=O)c1cc(Cl)cc(Cl)c1	/	/	.	29
CCC(=O)N(C)C[C@@H]1Oc2ncc(Br)cc2C(=O)N([C@H](C)CO)C[C@H]1C	.	.	.	29!
CCC(=O)N(C)C[C@@H]1Oc2ncc(-c3ccc(C)cc3)cc2C(=O)N([C@@H](C)CO)C[C@H]1C	.	.	.	22
CCC(=O)N(C)C[C@@H]1Oc2ncc(-c3ccc(C)cc3)cc2C(=O)N([C@@H](C)CO)C[C@@H]1C	.	.	.	.
Cc1ccc(-c2cnc3c(c2)C(=O)N([C@H](C)CO)C[C@@H](C)[C@@H](CN(C)C(=O)c2ccccc2)O3)cc1	.	.	.	68
Cc1ccc(S(=O)(=O)N(C)C[C@H]2Oc3ccc(NC(=O)CCCCCC(=O)Nc4ccccc4N)cc3CC(=O)N([C@@H](C)CO)C[C@@H]2C)cc1	.	.	.	.
CCC(=O)N(C)C[C@@H]1Oc2ncc(-c3ccc(C#N)cc3)cc2C(=O)N([C@H](C)CO)C[C@@H]1C	.	.	.	70
CN1C(=O)c2cc(NC(=O)NC3CCCC3)ccc2OC[C@@H]2O[C@H](CC(=O)NCC3CC3)CC[C@@H]21	/	.	.	.
C[C@@H]1CN([C@@H](C)CO)C(=O)CCCn2nncc2CO[C@H]1CN(C)C(=O)Nc1ccc(C(C)(C)C)cc1	.	.	.	22
COc1ccc(NC(=O)N(C)C[C@H]2OCc3cnnn3CCCC(=O)N([C@@H](C)CO)C[C@H]2C)c(OC)c1	.	.	/	26!
COc1ccc(NC(=O)N(C)C[C@@H]2OCc3cnnn3CCCC(=O)N([C@H](C)CO)C[C@H]2C)cc1	.	.	.	.
C[C@@H]1CN([C@H](C)CO)C(=O)CCCn2nncc2CO[C@H]1CN(C)C(=O)Nc1ccc(C(C)(C)C)cc1	.	.	.	.
COc1ccc(NC(=O)N(C)C[C@@H]2OCc3cnnn3CCCC(=O)N([C@@H](C)CO)C[C@@H]2C)cc1	.	.	.	24!
COc1ccc(NC(=O)N(C)C[C@@H]2OCc3cnnn3CCCC(=O)N([C@@H](C)CO)C[C@@H]2C)c(OC)c1	.	.	.	.
CC(=O)NC[C@H]1[C@@H](c2ccc(-c3cccnc3)cc2)[C@H](CO)N1C(=O)C1CC1	.	.	.	28
CC(=O)NC[C@@H]1[C@H](c2ccc(-c3ccccc3F)cc2)[C@H](CO)N1C(=O)C1CC1	.	.	.	.
